Article PMC2631656 (Journal of medicinal chemistry, 2008)

Experiments:
LNCaP (PSMA^+) tumor = details: 4 h p.i., i.v.
[1] = system: PC-3 PIP (PSMA^+) and PC-3 flu (PSMA^-) xenografts; details: mouse, in vivo

## O=C(O)CCC(NC(=O)NC(CCCCNC(=O)c1cncc([125I])c1)C(=O)O)C(=O)O (centres unmarked) [Compound [^125I]8, 2-(3-[1-carboxy-5-[(5-[^125I]iodo-pyridine-3-carbonyl)-amino]-pentyl]-ureido)-pentanedioic acid]
LNCaP (PSMA^+) tumor
  radiopharmaceutical uptake on SPECT-CT image: Tumor uptake was high, with little uptake in normal tissues
[1]
  clearance of radioactivity from nontarget organs: complete clearance
